{"sequences": {"note": "Amino acid sequences for entries named in this document (tags omitted).", "UniProt P35414, whole entry": "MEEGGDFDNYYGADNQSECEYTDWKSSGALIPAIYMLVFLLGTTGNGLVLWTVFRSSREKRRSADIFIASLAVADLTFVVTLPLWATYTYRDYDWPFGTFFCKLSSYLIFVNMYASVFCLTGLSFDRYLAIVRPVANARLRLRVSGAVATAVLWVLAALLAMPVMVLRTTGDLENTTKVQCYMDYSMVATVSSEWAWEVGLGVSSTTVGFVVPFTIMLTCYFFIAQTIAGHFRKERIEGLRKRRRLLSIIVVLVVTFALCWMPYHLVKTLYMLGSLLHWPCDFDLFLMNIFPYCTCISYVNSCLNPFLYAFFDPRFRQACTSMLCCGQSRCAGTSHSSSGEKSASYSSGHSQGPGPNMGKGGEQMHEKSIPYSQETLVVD"}, "source": "PubChem BioAssay AID2520", "about": "(Sanford-Burnham Center for Chemical Genomics, 2010)", "note": "Only a part is listed here, and it is no random draw. Some results for these compounds are left out of this collection, so the calls shown say nothing about other tests. The source made the active and inactive calls.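 Rule for the calls: active = activation more than six SD over the plate average, tested at 20 µM; inactive = the rest.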", "data": [{"biological_target": "Apelin receptor (Homo sapiens) (UniProt P35414)", "experiment": "agonists of human apelin receptor APJ, primary screen, CHO-K1 cells, PathHunter beta-arrestin, luminescence (AID 2520)", "details": "at 20 µM, stronger effect = higher value, 0% DMSO wells, 100% apelin", "how_it_was_run": "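Assay system – PathHunter CHO-K1 APJ (AGTRL-1) beta-arrestin reporter cells · Compound – one dose, 20 µM compound, 1% DMSO · Timing – compound 90 min 25 °C, reagent 1 h · Measured by – luminescence from split beta-galactosidase complementation, Galacton Star/Emerald II substrate · Measure – beta-arrestin recruitment to APJ as agonist activity, luminescent signal · Benchmarks – DMSO vs Apelin-13 10 nM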", "values": [{"molecule": "COc1ccc(Br)c(C(=O)NCC2(N3CCCCC3)CCCCC2)c1", "activation": "inactive: -5.51%"}, {"molecule": "CN(C)c1cccc(C(=O)NCC2(N(C)C)CCCCC2)c1", "activation": "inactive: 1.54%"}, {"molecule": "CC(C)Oc1ccc(C(=O)NCC2(N(C)C)CCCCC2)cc1", "activation": "inactive: -2.45%"}, {"molecule": "O=C(OC1CN2CCC1CC2)C(CO)(c1ccccc1)c1ccccc1", "note": "(centres undefined)", "activation": "inactive: -5.32%"}, {"molecule": "COc1cccc(C(=O)NCC2(N3CCCCC3)CCCCC2)c1", "activation": "inactive: -1.81%"}, {"molecule": "COc1ccc(Cl)cc1C(=O)NCC1(N(C)C)CCCCC1", "activation": "inactive: -5.32%"}, {"molecule": "O=C(NCC1(N2CCCCC2)CCCCC1)c1cccc(Cl)c1", "activation": "inactive: -4.01%"}, {"molecule": "CN(C)C1(CNC(=O)c2ccc(Br)cc2)CCCCC1", "activation": "inactive: -1.27%"}, {"molecule": "COc1cc(C(=O)NCC2(N(C)C)CCCCC2)c([N+](=O)[O-])cc1OC", "activation": "inactive: 1.79%"}, {"molecule": "C=CCN1CCN(CCOC(=O)C(O)(c2ccccc2)c2ccccc2)CC1", "activation": "inactive: -2.08%"}, {"molecule": "O=C(NCC1(N2CCCCC2)CCCCC1)c1cc(F)c(F)cc1Cl", "activation": "inactive: -2.75%"}, {"molecule": "CCN1CCCC(OC(=O)C2(O)c3ccccc3C=Cc3ccccc32)C1", "note": "(centres undefined)", "activation": "inactive: 0.489%"}, {"molecule": "Cc1cc(C(=O)NCC2(N3CCCCC3)CCCCC2)ccc1[N+](=O)[O-]", "activation": "inactive: -0.942%"}, {"molecule": "O=C(NCC1(N2CCCCC2)CCCCC1)c1cccc(Br)c1", "activation": "inactive: -2.19%"}, {"molecule": "COc1ccc(C(=O)NCC2(N(C)C)CCCCC2)cc1", "activation": "inactive: -2.41%"}, {"molecule": "Cc1ccccc1C(=O)NCC1(N2CCCCC2)CCCCC1", "activation": "inactive: -4.99%"}, {"molecule": "CN(C)c1ccc(C(=O)NCC2(N(C)C)CCCCC2)cc1", "activation": "inactive: -3.39%"}, {"molecule": "CN(C)C1CCCC1OC(=O)C(O)(c1ccccc1)c1ccccc1", "note": "(centres undefined)", "activation": "inactive: -1.89%"}, {"molecule": "CC(C)N1C(=O)CC2(CCN(CCOC(=O)C(O)(c3ccccc3)c3ccccc3)CC2)C1=O", "activation": "inactive: 1.58%"}, {"molecule": "CCN(CC)CC(C)C(C)OC(=O)C(O)(c1ccccc1)c1ccccc1", "note": "(centres undefined)", "activation": "inactive: -1.96%"}, {"molecule": "COc1cc(SC)ccc1C(=O)NCC1(N(C)C)CCCCC1", "activation": "inactive: -1.33%"}, {"molecule": "Cc1ccc(C(=O)NCC2(N3CCCCC3)CCCCC2)cc1", "activation": "inactive: -2.56%"}, {"molecule": "O=C(NCC1(N2CCCCC2)CCCCC1)c1cc([N+](=O)[O-])ccc1Cl", "activation": "inactive: -0.606%"}, {"molecule": "CN1[C@@H]2CC[C@H]1CC(OC(=O)C(O)(c1ccccc1)c1ccccc1)C2", "note": "(some centres undefined)", "activation": "inactive: -2.16%"}]}]}
